Tested on: Melanocortin receptor 1 (Homo sapiens)
Test: Inhibition of human MC1 receptor at 10 uM

| Compound | inhibition [%] |
| --- | --- |
| CC(C)CC(N)c1ccccc1N1CCN(C(=O)[C@@H](Cc2ccc(Cl)cc2Cl)NC(=O)CCN)CC1 (some centres not stated) | 38 |
| CC(C)CC(O)c1ccccc1N1CCN(C(=O)[C@@H](Cc2ccc(Cl)cc2Cl)NC(=O)CCN)CC1 (some centres not stated) | 24 |

From ChEMBL document CHEMBL1156733, “Structure-activity relationship studies on a series of piperazinebenzylalcohols and their ketone and amine analogs as melanocortin-4 receptor ligands” (Bioorg Med Chem Lett, 2008)
